{"source": "paper PMC8876231", "about": "“Analogues of Natural Chalcones as Efficient Inhibitors of AKR1C3” (Metabolites, 2022)", "origin": "cited, not measured here", "test_system": "AKR1C3", "conditions": "read-out: AKR1C3 IC50; cited from earlier work"}
{"substance": "baccharin", "values": [{"measurement": "IC50", "value": 0.1, "unit": "µM"}]}
